Reference: patent US11873291B2, “Quinoline cGAS antagonist compounds” (ImmuneSensor Therapeutics, Inc., priority 2020, dated 2024)
Where two headings read alike, the source gives them in different places.

The chains behind the UniProt entries cited, without tags or fusion partners. Residues count along the entry.
UniProt Q8N884, 147-522 limits assumed: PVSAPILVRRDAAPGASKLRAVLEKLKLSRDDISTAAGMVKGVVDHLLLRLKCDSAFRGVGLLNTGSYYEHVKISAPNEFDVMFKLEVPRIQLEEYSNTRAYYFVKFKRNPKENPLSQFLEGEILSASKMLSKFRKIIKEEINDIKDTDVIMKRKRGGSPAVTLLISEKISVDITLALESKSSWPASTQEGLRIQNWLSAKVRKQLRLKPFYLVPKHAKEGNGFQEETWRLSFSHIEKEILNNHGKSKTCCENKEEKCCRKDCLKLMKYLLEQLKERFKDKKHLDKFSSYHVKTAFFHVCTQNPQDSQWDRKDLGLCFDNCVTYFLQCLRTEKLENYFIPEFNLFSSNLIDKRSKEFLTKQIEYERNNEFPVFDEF

How the values were obtained:
[1] = biological target: recombinant human cGAS (aa147-522) (Homo sapiens, UniProt Q8N884); assay: In vitro inhibition assay of cGAS activity (ATP consumption, KinaseGlo Max); format: biochemical
Method: Expression and Purification of Recombinant cGAS Protein: cDNA encoding full-length or amino acids […] of human cGAS was inserted into a modified pET28a vector containing an in-frame His6-SUMO tag. The E. coli strain BL21/pLys harboring the plasmid was induced with 0.5 mM IPTG at 18° C. overnight. His6-SUMO tag was removed by a SUMO protease digestion following purification of the His6-SUMO-cGAS as described previously (Sun et al, 2013, Science 339, 786).
In vitro inhibition assay of cGAS activity: A 60 μL mixture containing 20 mM Tris-Cl, pH 7.5, 5 mM MgCl2, 0.2 mg/mL BSA, 0.01 mg/mL Herring testis DNA, 6.6 μM ATP, 0.1 mM GTP, 1.5 μg/mL of recombinant human cGAS (aa147-522) and serial dilutions of a test compound in DMSO was added to a 96-well plate and incubated at 37° C. for 20 minutes. At the end of reaction, 40 μL of KinaseGlo Max (Promega) was added and chemiluminescence was measured with a luminometer. Inhibitory effect of a compound is evaluated by plotting percentage of ATP consumption against logarithm of compound concentrations. IC50 value was calculated using GraphPad Prism 8 (GraphPad Software, Inc.).
The letter codes for cGAS IC50 include: A (<2 μM); B (2-30 μM); C (>30 μM).

[2] = system: cGAS activity in Reporter THP1 cell line; assay: Cellular assay to measure cGAS activity: ISRE-Gaussia luciferase reporter THP1 cells transfected with ISD
Method: Cellular assay to measure cGAS activity: Reporter THP1 cell line harboring a gene encoding Gaussia Luciferase under the control of 5 tandem repeats of interferon-stimulated response elements (ISRE) fused to an ISG54 minimal promoter was used to test inhibition of cGAS activity by synthetic compounds in human cells. These cells were plated on 96-well plates at 0.3×10^6/well and incubated with serial dilutions of compounds or DMSO for 5 min, followed by transfection of 2 μg/mL of ISD (Interferon Stimulatory DNA, a 45 bp DNA oligo) or mock transfected using lipofectamine 2000 (Life Technology) method, according to manufacturer's instructions. 16 hours later, 15 μL of the media from each well was transferred to a new plate, 50 μL of solution containing 50 mM Hepes-NaOH, pH 6.5, 50 mM NaCl, 10 mM EDTA, 1 μM of coelenterazine was added to each well and luminescence was measured immediately. Fold increase in luminescence compared to mock transfection was plotted against concentrations of each compound, and IC50 is calculated using Graphpad. To evaluate the specificity of a compound, the same procedure was performed except that cells were transfected with 2 μg/mL poly(I:C) or infected with Sendai Virus (SeV) at 50 Unit/mL, which are known to activate the RIG-I-MAVS pathway. […]

For `O=C(O)c1cccc(OCCNc2cc(-n3ccnc3)c3ccc(Cl)c(Cl)c3n2)c1`, the IC50 ([1]; read-out: cGAS Inhibition Results IC50, Table 3) was less than 2000 nM and the IC50 ([2]; read-out: Cellular Assay Results IC50, untitled table after Table 4 (continuation)) was 2000 to 10000 nM.
With `COC(=O)[C@@H]1[C@H](COCCC(=O)O)CCN1c1cc(-n2ccnc2)c2ccc(Cl)c(Cl)c2n1` (relative stereo) the IC50 ([1]; read-out: cGAS Inhibition Results IC50, Table 3, tested form: TFA) was less than 2000 nM and the IC50 ([2]; read-out: Cellular Assay Results IC50, untitled table after Table 4 (continuation), tested form: TFA) was greater than 10000 nM.
